The source of these data is patent US20170247393A1, “Aminoisoxazoline Compounds as Agonists of Alpha7-Nicotinic Acetylcholine Receptors” (Forum Pharmaceuticals, Inc., priority 2015, published 2017).

By UniProt entry, the sequences of proteins in these tests, tags left out. Residues count along the entry.
UniProt P36544, 23-502 limits assumed: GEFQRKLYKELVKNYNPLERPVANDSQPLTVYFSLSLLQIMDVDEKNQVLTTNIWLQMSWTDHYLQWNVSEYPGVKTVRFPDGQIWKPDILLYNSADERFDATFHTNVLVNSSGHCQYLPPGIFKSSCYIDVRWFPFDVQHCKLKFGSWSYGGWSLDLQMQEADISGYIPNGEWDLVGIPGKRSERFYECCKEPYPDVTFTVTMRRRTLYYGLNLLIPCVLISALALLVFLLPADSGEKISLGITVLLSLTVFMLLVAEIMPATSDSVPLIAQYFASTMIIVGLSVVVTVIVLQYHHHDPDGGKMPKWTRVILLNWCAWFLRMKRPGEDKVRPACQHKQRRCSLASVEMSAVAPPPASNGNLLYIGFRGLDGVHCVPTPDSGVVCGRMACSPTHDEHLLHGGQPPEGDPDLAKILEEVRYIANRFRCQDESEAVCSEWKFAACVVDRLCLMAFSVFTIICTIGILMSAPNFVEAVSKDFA

Where a name gives a salt, the structure may show the parent alone. Bounds are passed on as bounds.

By Ki is commonly meant a dissociation constant, usually derived from enzyme kinetics or from competition with a known ligand.

This assay concerns the target human α7 nAChR (Homo sapiens, UniProt P36544). Description: Human α7 nAChR binding assay ([125I]-αBungarotoxin competition binding, Cerep). The settings on record: read-out: h- α7 Ki; SH-SY5Y membranes expressing human α7 nAChR, 0.05 nM [125I]-αBgt, 120 min at 37° C.
Turning to `c1ccc2c(NC3=NOC4(C3)CN3CCC4CC3)n[nH]c2c1` (racemic), the Ki was determined as 1 µM.

`Cc1cc2ccc(NC3=NO[C@@]4(C3)CN3CCC4CC3)nc2s1` [(R)-53, (R)—N-(2-methylthieno[2,3-b]pyridin-6-yl)-4H-1′-azaspiro[isoxazole-5,3′-bicyclo[2.2.2]octan]-3-amine hydrochloride]: the Ki was found to be 0.025 µM.

With `Clc1cccc(NC2=NO[C@@]3(C2)CN2CCC3CC2)c1` [(R)-34, (R)—N-(3-chlorophenyl)-4H-1′-azaspiro[isoxazole-5,3′-bicyclo[2.2.2]octan]-3-amine hydrochloride], the Ki came to 0.64 µM.

`c1cc2c(NC3=NOC4(C3)CN3CCC4CC3)ncnn2c1` (racemic): the Ki was 18 µM.

For the molecule `Fc1cc2nc(NC3=NO[C@@]4(C3)CN3CCC4CC3)sc2c(F)c1Cl`, the Ki was 0.44 µM.

On to `c1cnc2cc(NC3=NO[C@@]4(C3)CN3CCC4CC3)ccc2c1` [(R)-79, (R)—N-(quinolin-7-yl)-4H-1′-azaspiro[isoxazole-5,3′-bicyclo[2.2.2]octan]-3-amine hydrochloride], for which the Ki worked out at 0.18 µM.

Regarding `Clc1cccc2sc(NC3=NO[C@]4(C3)CN3CCC4CC3)nc12`, the Ki turned out to be 17 µM.

As for `c1ccc2sc(NC3=NOC4(C3)CN3CCC4CC3)cc2c1` (racemic) [rac-12, (+/−)-N-(benzo[b]thiophen-2-yl)-4H-1′-azaspiro[isoxazole-5,3′-bicyclo[2.2.2]octan]-3-amine], the Ki came to 0.062 µM.

Regarding `Clc1ccc2nc(NC3=NO[C@@]4(C3)CN3CCC4CC3)sc2c1Cl`, the Ki turned out to be 1.5 µM.

In the case of `Cc1nsc2cc(NC3=NO[C@@]4(C3)CN3CCC4CC3)ccc12` [(R)-72, (R)—N-(3-methylbenzo[d]isothiazol-6-yl)-4H-1′-azaspiro[isoxazole-5,3′-bicyclo[2.2.2]octan]-3-amine hydrochloride], the Ki is 0.135 µM.

Take `COc1cc(NC2=NO[C@@]3(C2)CN2CCC3CC2)ccc1Cl`: the Ki is 1.2 µM.

With `Clc1cc(NC2=NO[C@@]3(C2)CN2CCC3CC2)ccc1C1CC1`, the Ki is 0.63 µM.

As to `Cc1cc2cnc(NC3=NO[C@@]4(C3)CN3CCC4CC3)nc2o1` [(R)-75, (R)—N-(6-methylfuro[2,3-d]pyrimidin-2-yl)spiro[4H-isoxazole-5,3′-quinuclidine]-3-amine hydrochloride], the Ki was 0.57 µM.

`Clc1cccc2sc(NC3=NO[C@@]4(C3)CN3CCC4CC3)nc12`: the Ki amounted to 0.62 µM.

For the molecule `Fc1sc2cc(NC3=NO[C@@]4(C3)CN3CCC4CC3)ccc2c1F` [(R)-55, hydrochloride], the Ki amounted to 0.17 µM.

`Clc1cc(Cl)c2sc(NC3=NO[C@@]4(C3)CN3CCC4CC3)nc2c1`: the Ki was found to be 1.3 µM.

As to `c1ccc2ncc(NC3=NO[C@@]4(C3)CN3CCC4CC3)cc2c1`, the Ki amounted to 2.4 µM.

Turning to `Cc1cc2cnc(NC3=NO[C@@]4(C3)CN3CCC4CC3)nc2s1` [(R)-52, (R)—N-(6-methylthieno[2,3-d]pyrimidin-2-yl)-4H-1′-azaspiro[isoxazole-5,3′-bicyclo[2.2.2]octan]-3-amine hydrochloride], the Ki worked out at 0.0375 µM.

Regarding `c1cc2c(NC3=NOC4(C3)CN3CCC4CC3)ncnn2c1` (single isomer, unassigned), the Ki was over 30 µM.

Consider `Clc1cccc2nc(NC3=NO[C@]4(C3)CN3CCC4CC3)sc12` [(S)-11, (S)—N-(7-chlorobenzo[d]thiazol-2-yl)-4H-1′-azaspiro[isoxazole-5,3′-bicyclo[2.2.2]octan]-3-amine], for which the Ki turned out to be 5.4 µM.

Turning to `Clc1cc2ccc(NC3=NO[C@@]4(C3)CN3CCC4CC3)cc2s1` [(R)-54, (R)—N-(2-chlorobenzo[b]thiophen-6-yl)-4H-F-azaspiroksoxazole-5,3^1-bicyclo[2.2.2]octan1-3-amine hydrochloride], the Ki worked out at 0.0827 µM.

For the molecule `Cn1ncc2ccc(NC3=NO[C@@]4(C3)CN3CCC4CC3)cc21` [(R)-64, (R)—N-(1-methyl-1H-indazol-6-yl)-4H-1′-azaspiro[isoxazole-5,3′-bicyclo[2.2.2]octan]-3-amine hydrochloride], the Ki stood at 0.205 µM.

For the molecule `Clc1ccc(NC2=NO[C@@]3(C2)CN2CCC3CC2)cc1` [(R)-20, (R)—N-(4-chlorophenyl)-4H-1′-azaspiro[isoxazole-5,3′-bicyclo[2.2.2]octan]-3-amine hydrochloride], the Ki turned out to be 0.195 µM.

Consider `Cc1ccc2cc(NC3=NO[C@@]4(C3)CN3CCC4CC3)ncc2c1` [(R)-59, (R)—N-(7-methylisoquinolin-3-yl)-4H-1′-azaspiro[isoxazole-5,3′-bicyclo[2.2.2]octan]-3-amine hydrochloride], for which the Ki was determined as 0.145 µM.

On to `Cc1cc2ccc(NC3=NO[C@@]4(C3)CN3CCC4CC3)cc2o1` [(R)-40, (R)—N-(2-methylbenzofuran-6-yl)-4H-1′-azaspiro[isoxazole-5,3′-bicyclo[2.2.2]octan]-3-amine hydrochloride], for which the Ki worked out at 0.047 µM.

Consider `Cn1cnc2cc(NC3=NO[C@@]4(C3)CN3CCC4CC3)ccc21`, for which the Ki is 1.6 µM.

Regarding `FC1(F)Oc2ccc(NC3=NO[C@@]4(C3)CN3CCC4CC3)cc2O1`, the inhibition constant (Ki) came out at 0.95 µM.

Turning to `Cc1coc2cc(NC3=NO[C@@]4(C3)CN3CCC4CC3)ccc12` [(R)-74, (R)—N-(3-methylbenzofuran-6-yl)-4H-1′-azaspiro[isoxazole-5,3′-bicyclo[2.2.2]octan]-3-amine hydrochloride], the Ki came to 0.0225 µM.

Take “N-(furo[3,2-c]pyridin-5-yl)-4H-1′-azaspiro[isoxazole-5,3′-bicyclo[2.2.2]octan]-3-amine-enantiomer1 hydrochloride”: the Ki is over 30 µM.

Regarding `c1cc2sc(NC3=NO[C@@]4(C3)CN3CCC4CC3)nc2cc1C1CC1` [(R)-26, (R)—N -(5-cyclopropylbenzo[d]thiazol-2-yl)-4H-1′-azaspiro[isoxazole-5,3′-bicyclo[2.2.2]octan]-3-amine hydrochloride], the Ki came out at 0.086 µM.

Consider `Cc1nc2ccc(NC3=NO[C@@]4(C3)CN3CCC4CC3)cc2o1`, for which the Ki stood at 0.77 µM.

For the molecule `Cc1cc2cc(NC3=NO[C@@]4(C3)CN3CCC4CC3)ccc2o1`, the Ki was determined as 0.47 µM.

With `Cc1cn2ccc(NC3=NO[C@@]4(C3)CN3CCC4CC3)cc2n1` [(R)-96, (R)-N-(2-methylimidazo[1,2-a]pyridin-7-yl)-4H-1′-azaspiro[isoxazole-5,3′-bicyclo[2.2.2]octan]-3-amine hydrochloride], the Ki was found to be 20 µM.

Consider `Cc1csc2cc(NC3=NO[C@@]4(C3)CN3CCC4CC3)ccc12` [(R)-56, (R)—N -(3-methylbenzo[b]thiophen-6-yl)-4H-1′-azaspiro[isoxazole-5,3′-bicyclo[2.2.2]octan]-3-amine hydrochloride], for which the Ki came to 0.051 µM.

On to `Clc1ccc2cnc(NC3=NO[C@@]4(C3)CN3CCC4CC3)nc2c1` [(R)-49, (R)—N-(7-chloroquinazolin-2-yl)-4H-1′-azaspiro[isoxazole-5,3′-bicyclo[2.2.2]octan]-3-amine], for which the Ki came out at 0.043 µM.

Turning to “N-(furo[3,2-c]pyridin-5-yl)-4H-1′-azaspiro[isoxazole-5,3′-bicyclo[2.2.2]octan]-3-amine-enantiomer2 hydrochloride”, the inhibition constant Ki was over 30 µM.

In the case of `Fc1ccc2cnc(NC3=NO[C@@]4(C3)CN3CCC4CC3)cc2c1` [(R)-45, (R)—N-(6-fluoroisoquinolin-3-yl)-4H-1′-azaspiro[isoxazole-5,3′-bicyclo[2.2.2]octan]-3-amine hydrochloride], the Ki turned out to be 0.225 µM.

With `Cn1c(NC2=NO[C@@]3(C2)CN2CCC3CC2)nc2ccccc21`, the Ki is over 30 µM.

On to `Fc1cc2cnc(NC3=NO[C@@]4(C3)CN3CCC4CC3)cc2cc1Cl` [(R)-81, (R)—N-(6-chloro-7-fluoroisoquinolin-3-yl)-4H-1′-azaspiro[isoxazole-5,3^1-bicyclo[2.2.2]octan]-3-amine hydrochloride], for which the Ki was determined as 0.18 µM.

As to `Clc1csc2cc(NC3=NO[C@@]4(C3)CN3CCC4CC3)ccc12` [(R)-76, (R)—N -(3-chlorobenzo[b]thiophen-6-yl)-4H-1′-azaspiro[isoxazole-5,3′-bicyclo[2.2.2]octan]-3-amine hydrochloride], the Ki worked out at 0.073 µM.

Regarding `Fc1ccc2sc(NC3=NO[C@@]4(C3)CN3CCC4CC3)nc2c1` [(R)-27, (R)—N-(5-fluorobenzo[d]thiazol-2-yl)-4H-1′-azaspiro[isoxazole-5,3′-bicyclo[2.2.2]octan]-3-amine hydrochloride], the Ki turned out to be 0.23 µM.

For the molecule `Cc1nc2cc(NC3=NO[C@@]4(C3)CN3CCC4CC3)ccc2n1C`, the Ki was 12 µM.

As for `COc1ccc2cc(NC3=NO[C@@]4(C3)CN3CCC4CC3)ncc2c1` [(R)-46, (R)—N-(7-methoxyisoquinolin-3-yl)-4H-1′-azaspiro[isoxazole-5,3′-bicyclo[2.2.2]octan]-3-amine hydrochloride], the Ki came out at 1.8 µM.

On to `c1ccc2nc(NC3=NO[C@@]4(C3)CN3CCC4CC3)ncc2c1` [(R)-22, (R)—N-(quinazolin-2-yl)-4H-1′-azaspiro[isoxazole-5,3′-bicyclo[2.2.2]octan]-3-amine hydrochloride], for which the Ki was determined as 0.25 µM.

Take `N#Cc1ccc2sc(NC3=NO[C@@]4(C3)CN3CCC4CC3)nc2c1`: the Ki worked out at 0.66 µM.

On to `Fc1c(Cl)sc2cc(NC3=NO[C@@]4(C3)CN3CCC4CC3)ccc12` [(R)-78, (R)—N-(2-chloro-3-fluorobenzo[b]thiophen-6-yl)-4H-1′-azaspiro[isoxazole-5,3′-bicyclo[2.2.2]octan]-3-amine hydrochloride], for which the Ki was determined as 0.27 µM.

Regarding `Clc1cc2nc(NC3=NO[C@@]4(C3)CN3CCC4CC3)sc2cc1Cl` [(R)-30, (R)—N-(5 ,6 - dichlor obenzo[d]thiazol-2-yl)-4H-1′-azaspiro[isoxazole-5,3′-bicyclo[2.2.2]octan]-3-amine hydrochloride], the Ki was 0.08 µM.

As for `Cc1nc2ccc(NC3=NO[C@@]4(C3)CN3CCC4CC3)cc2s1` [(R)-50, (R)—N-(2-methylbenzo[d]thiazol-6-yl)-4H-1′-azaspiro[isoxazole-5,3′-bicyclo[2.2.2]octan]-3-amine hydrochloride], the Ki was found to be 0.205 µM.

`Fc1ccc2cc(NC3=NO[C@@]4(C3)CN3CCC4CC3)ncc2c1` [(R)-44, (R)—N-(7-fluoroisoquinolin-3-yl)-4H-F-azaspiro[isoxazole-5,3^1-bicyclo[2.2.2]octan]-3-amine hydrochloride]: the Ki is 0.39 µM.
